Values quoted from earlier work, collected in PubChem BioAssay AID977611.
pKd: −log10 of the molar value.

Columns and labels:
Test in all cases: PubChem AID 977611
[1] = target: odorant-binding protein; conditions: PDB protein-ligand complexes, literature Kd; protein: odorant-binding protein; PDB entry 1G85
[2] = target: anti-methamphetamine single chain Fv; conditions: PDB protein-ligand complexes, literature Kd, protein: anti-methamphetamine single chain Fv
[3] = target: 6-hydroxymethyl-7,8-dihydropterin pyrophosphoki; conditions: PDB protein-ligand complexes, literature Kd, protein: 6-hydroxymethyl-7,8-dihydropterin pyrophosphoki
[4] = target: thymidylate synthase; conditions: PDB protein-ligand complexes, literature Kd, protein: thymidylate synthase
[5] = target: Phenylethanolamine N-methyltransferase, PNMT; conditions: PDB protein-ligand complexes, literature Kd, protein: Phenylethanolamine N-methyltransferase, PNMT
[6] = target: flavodoxin; conditions: PDB protein-ligand complexes, literature Kd, protein: flavodoxin
[7] = target: carbonic anhydrase ii; conditions: PDB protein-ligand complexes, literature Kd, protein: carbonic anhydrase ii
[8] = target: transthyretin; conditions: PDB protein-ligand complexes, literature Kd, protein: transthyretin
[9] = target: Galectin-1; conditions: PDB protein-ligand complexes, literature Kd, protein: Galectin-1
[10] = target: h-2 class i histocompatibility antigen; conditions: PDB protein-ligand complexes, literature Kd, protein: h-2 class i histocompatibility antigen
[11] = target: lysozyme; conditions: PDB protein-ligand complexes, literature Kd; protein: lysozyme; PDB entry 1LI3
[12] = target: Gag-Pol polyprotein (Pr160Gag-Pol); conditions: PDB protein-ligand complexes, literature Kd, protein: Gag-Pol polyprotein (Pr160Gag-Pol)
[13] = target: Aplysia AChBP; conditions: PDB protein-ligand complexes, literature Kd, protein: Aplysia AChBP
[14] = target: trypsin beta; conditions: PDB protein-ligand complexes, literature Kd, protein: trypsin beta
[15] = target: nucleoside diphosphate kinase; conditions: PDB protein-ligand complexes, literature Kd, protein: nucleoside diphosphate kinase
[16] = target: Acarbose/maltose binding protein GacH; conditions: PDB protein-ligand complexes, literature Kd; protein: Acarbose/maltose binding protein GacH; PDB entry 3K00
[17] = target: mutator mutt protein; conditions: PDB protein-ligand complexes, literature Kd, protein: mutator mutt protein
[18] = target: aspartate aminotransferase; conditions: PDB protein-ligand complexes, literature Kd, protein: aspartate aminotransferase
[19] = target: 6,7-dimethyl-8-ribityllumazine synthase; conditions: PDB protein-ligand complexes, literature Kd; protein: 6,7-dimethyl-8-ribityllumazine synthase; PDB entry 2A58

## CCCCC[C@H](O)CC
[1]
  pKd: 5.48

## CN[C@@H](C)Cc1ccccc1
[2]; PDB entry 3GKZ
  pKd: 8.00

## Nc1ncnc2c1ncn2[C@@H]1O[C@H](COP(=O)(O)CP(=O)(O)OP(=O)(O)O)[C@@H](O)[C@H]1O
[3]; PDB entry 1RU1
  pKd: 4.74
[3]; PDB entry 1RU2
  pKd: 6.49
[3]; PDB entry 1TMM
  pKd: 6.64

## Cc1cn([C@H]2C[C@H](O)[C@@H](COP(=O)(O)O)O2)c(=O)[nH]c1=O
[4]; PDB entry 1TYS
  pKd: 5.49

## O=c1cc[nH]c2ccccc12
[5]; PDB entry 3KPU
  pKd: 3.16

## Nc1ccc2ncccc2c1
[5]; PDB entry 3KQP
  pKd: 3.42

## CN[C@@H](C)Cc1ccc2c(c1)OCO2
[2]; PDB entry 3GM0
  pKd: 7.77

## Cc1cc2c(cc1C)N(C[C@H](O)[C@H](O)[C@H](O)COP(=O)(O)O)c1[nH]c(=O)[nH]c(=O)c1N2
[6]; PDB entry 1AG9
  pKd: 9.00
[6]; PDB entry 1C7E
  pKd: 6.30
[6]; PDB entry 1CZO
  pKd: 4.55
[6]; PDB entry 1D04
  pKd: 4.59

## N#Cc1ccc(N(Cc2ccc(OS(N)(=O)=O)c(Br)c2)n2cnnc2)cc1
[7]; PDB entry 1XQ0
  pKd: 6.34

## O=C(O)c1ccccc1Nc1cccc(C(F)(F)F)c1
[8]; PDB entry 1BM7
  pKd: 7.52

## OC[C@H]1O[C@@H](S[C@@H]2O[C@H](CO)[C@H](O)[C@H](O)[C@H]2O)[C@H](O)[C@@H](O)[C@H]1O
[9]; PDB entry 3OYW
  pKd: 4.11

## CC(C)C[C@H](NC(=O)[C@H](C)NC(=O)[C@@H]1CCCN1C(=O)[C@H](Cc1ccc(O)cc1)NC(=O)[C@H](CC(N)=O)NC(=O)CNC(=O)[C@@H]1CCCN1C(=O)[C@H](C)NC(=O)[C@@H](N)Cc1ccccc1)C(=O)O
[10]; PDB entry 1FZK
  pKd: 8.40
[10]; PDB entry 1FZO
  pKd: 7.89

## Oc1cccc(Cl)c1
[11]
  pKd: 4.25

## Cc1cccc(C)c1OCC(=O)N[C@@H](Cc1ccccc1)[C@@H](O)C[C@H](Cc1ccccc1)NC(=O)[C@H](C(C)C)N1CCCNC1=O
[12]; PDB entry 2O4S
  pKd: 10.51

## COc1ccc(/C=C2\CCCN=C2c2cccnc2)c(OC)c1
[13]; PDB entry 2WNJ
  pKd: 6.48

## O=c1ccn([C@H]2C[C@H](O)[C@@H](COP(=O)(O)O)O2)c(=O)[nH]1
[4]; PDB entry 1BP0
  pKd: 5.40
[4]; PDB entry 1JMF
  pKd: 5.77
[4]; PDB entry 1JMG
  pKd: 6.07
[4]; PDB entry 1JMI
  pKd: 6.06
[4]; PDB entry 1NJB
  pKd: 5.80
[4]; PDB entry 1NJD
  pKd: 5.57
[4]; PDB entry 1TSV
  pKd: 4.80
[4]; PDB entry 1TSY
  pKd: 4.96

## Oc1c(Br)cc(Br)cc1Br
[8]; PDB entry 1E5A
  pKd: 7.64

## CC(C)C[C@H](NC(=O)CNC(=O)[C@H](CCC(N)=O)NC(=O)[C@H](Cc1ccc(O)cc1)NC(=O)[C@@H](NC(=O)[C@H](Cc1ccc(O)cc1)NC(=O)CNC(=O)[C@@H](N)CCCN=C(N)N)C(C)C)C(=O)O
[10]; PDB entry 1FZJ
  pKd: 8.10
[10]; PDB entry 1FZM
  pKd: 7.70

## N=C(N)c1cccc(C[C@H](NS(=O)(=O)c2ccc3ccccc3c2)C(=O)N2CCNCC2)c1
[14]; PDB entry 1K1L
  pKd: 6.90

## N[C@@H](Cc1ccccc1)C(=O)NCCOCCOCCNC(=O)c1ccc(S(N)(=O)=O)cc1
[7]; PDB entry 1CNY
  pKd: 7.85

## Nc1ncnc2c1ncn2[C@@H]1O[C@H](COP(=O)(O)OS(=O)(=O)O)[C@@H](OP(=O)(O)O)[C@H]1O
[15]; PDB entry 1BUX
  pKd: 4.85

## OC[C@H]1O[C@@H](O[C@H]2[C@H](O)[C@@H](O)[C@@H](O[C@H]3[C@H](O)[C@@H](O)[C@@H](O[C@H]4[C@H](O)[C@@H](O)[C@@H](O)O[C@@H]4CO)O[C@@H]3CO)O[C@@H]2CO)[C@H](O)[C@H](O)[C@@H]1O
[16]
  pKd: 5.77

## COC(=O)C1CCN(C(=O)[C@H](Cc2cccc(C(=N)N)c2)NS(=O)(=O)c2ccc3ccccc3c2)CC1
[14]; PDB entry 1K1J
  pKd: 7.55

## Nc1nc2c([nH]c(=O)n2[C@H]2C[C@H](O)[C@@H](COP(=O)(O)O)O2)c(=O)[nH]1
[17]; PDB entry 1PPX
  pKd: 7.28
[17]; PDB entry 1PUN
  pKd: 7.28
[17]; PDB entry 1PUQ
  pKd: 7.28
[17]; PDB entry 1PUS
  pKd: 7.28

## Clc1ncnc2nc[nH]c12
[5]; PDB entry 3KQO
  pKd: 3.85

## O=C(O)CCC(=O)O
[18]; PDB entry 1CZE
  pKd: 2.62

## CC(=O)N1CCN(C(=O)[C@H](Cc2cccc(C(=N)N)c2)NS(=O)(=O)c2ccc3ccccc3c2)CC1
[14]; PDB entry 1K1M
  pKd: 7.40

## Nc1ccn([C@H]2C[C@H](O)[C@@H](COP(=O)(O)O)O2)c(=O)n1
[4]; PDB entry 1NJA
  pKd: 6.31
[4]; PDB entry 1NJC
  pKd: 5.55
[4]; PDB entry 1NJE
  pKd: 3.80

## Cc1cc2nc3c(=O)[nH]c(=O)[nH]c3[n+](C[C@H](O)[C@H](O)[C@H](O)CO)c2cc1C
[19]
  pKd: 4.92

## COc1cc(O)ccc1/C=C1\CCCN=C1c1cccnc1
[13]; PDB entry 2WN9
  pKd: 8.52

## O=C(O)CCCC(=O)O
[18]; PDB entry 1CZC
  pKd: 2.82

## CCC[C@@]1(CCc2ccccc2)CC(O)=C([C@H](CC)c2cccc(NS(=O)(=O)c3ccc(C(F)(F)F)cn3)c2)C(=O)O1
[12]; PDB entry 2O4L
  pKd: 9.22
[12]; PDB entry 2O4N
  pKd: 7.82
[12]; PDB entry 2O4P
  pKd: 10.72

## COC(=O)N[C@H](C(=O)N[C@@H](Cc1ccccc1)[C@@H](O)CN(Cc1ccc(-c2ccccn2)cc1)NC(=O)[C@@H](NC(=O)OC)C(C)(C)C)C(C)(C)C
[12]; PDB entry 2O4K
  pKd: 10.46

## N=C(N)c1cccc(C[C@H](NS(=O)(=O)c2ccc3ccccc3c2)C(=O)N2CCCC[C@@H]2C(=O)O)c1
[14]; PDB entry 1K1I
  pKd: 6.58

## NS(=O)(=O)c1ccc(CCNC(=S)Nc2ccc(-c3c4ccc(=O)cc-4oc4cc(O)ccc34)c(C(=O)O)c2)cc1
[7]; PDB entry 2F14
  pKd: 9.19

## O=C(O)/C=C\C(=O)O
[18]; PDB entry 1AHY
  pKd: 3.36
[18]; PDB entry 1TOK
  pKd: 2.47

## NC(=O)c1ncn([C@@H]2O[C@H](COP(=O)(O)OP(=O)(O)OP(=O)(O)O)[C@@H](O)[C@H]2O)n1
[15]; PDB entry 1MN9
  pKd: 4.62

## O=C(O)[C@H](O)[C@@H](O)[C@H](O[C@@H]1O[C@H](CO)[C@H](O)[C@H](O)[C@H]1O)[C@H](O)CO
[9]; PDB entry 3OY8
  pKd: 3.66
